According to paper PMC6920932:

How the values were obtained:
Assay in all cases: purified protein
BrCCCBr = settings: 100 mM glycine buffer pH 8.6, 37 °C
N#CCCCBr = settings: 100 mM glycine buffer pH 8.6, 37 °C
BrCCBr = settings: pH 8.6; 37.0 °C

| Substance | K0.5 (BrCCCBr) [mM] | kcat (BrCCCBr) [s⁻¹] | K0.5 (N#CCCCBr) [mM] | kcat (N#CCCCBr) [s⁻¹] | K0.5 (BrCCBr) [mM] | Km (BrCCCBr; no substrate inhibition) [mM] | kcat (BrCCCBr; no substrate inhibition) [s⁻¹] | Km (N#CCCCBr; no substrate inhibition) [mM] | kcat (N#CCCCBr; no substrate inhibition) [s⁻¹] | Km (BrCCBr) [mM] |
| --- | --- | --- | --- | --- | --- | --- | --- | --- | --- | --- |
| DmxA (Marinobacter sp. ELB17; F246A/M177A) | 0.13 | 1.91 | 0.93 | 1.25 | 1.34 |  |  |  |  |  |
| DmxA (Marinobacter sp. ELB17; Q40N) |  |  |  |  |  | 0.13 | 30.91 | 1.25 | 0.93 | 1.19 |
